Values joined by “and” are separate entries in the source; they are usually repeats but may differ in a detail not shown here. Equal values may be shown once.
Legend:
[1] = biological target: 5-hydroxytryptamine receptor 2A (Rattus norvegicus, UniProt P14842)
[2] = biological target: 5-hydroxytryptamine receptor 2B (Homo sapiens, UniProt P41595)

The chains behind the UniProt entries cited, without tags or fusion partners.
UniProt P14842, whole entry: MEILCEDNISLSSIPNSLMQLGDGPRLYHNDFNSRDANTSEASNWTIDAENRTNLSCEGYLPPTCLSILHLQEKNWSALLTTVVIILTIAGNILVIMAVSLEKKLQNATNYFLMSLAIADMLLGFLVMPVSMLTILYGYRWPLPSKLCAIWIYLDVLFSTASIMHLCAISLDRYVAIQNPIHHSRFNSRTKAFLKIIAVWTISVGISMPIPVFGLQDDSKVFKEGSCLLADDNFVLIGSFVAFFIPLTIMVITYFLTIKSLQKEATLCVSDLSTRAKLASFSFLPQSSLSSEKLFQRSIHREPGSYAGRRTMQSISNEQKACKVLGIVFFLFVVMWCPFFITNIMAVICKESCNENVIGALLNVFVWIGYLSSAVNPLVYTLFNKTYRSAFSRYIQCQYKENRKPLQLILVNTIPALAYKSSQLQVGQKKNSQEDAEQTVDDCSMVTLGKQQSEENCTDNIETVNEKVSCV
UniProt P41595, whole entry: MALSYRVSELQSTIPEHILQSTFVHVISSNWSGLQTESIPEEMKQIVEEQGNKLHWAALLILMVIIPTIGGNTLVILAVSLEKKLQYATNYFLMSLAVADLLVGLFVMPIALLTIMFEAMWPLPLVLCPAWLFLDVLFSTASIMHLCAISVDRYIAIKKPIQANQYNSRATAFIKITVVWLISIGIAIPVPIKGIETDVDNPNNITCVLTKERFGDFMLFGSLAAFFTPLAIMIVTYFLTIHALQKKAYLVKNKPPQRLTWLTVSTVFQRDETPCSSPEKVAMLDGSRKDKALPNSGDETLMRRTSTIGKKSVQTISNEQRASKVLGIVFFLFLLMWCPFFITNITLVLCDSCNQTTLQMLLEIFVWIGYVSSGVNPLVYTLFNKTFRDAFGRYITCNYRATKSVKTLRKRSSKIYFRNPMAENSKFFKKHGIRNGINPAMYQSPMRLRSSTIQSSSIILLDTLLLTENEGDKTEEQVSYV

## CN1C[C@H](C(=O)N[C@]2(C)O[C@@]3(O)[C@@H]4CCCN4C(=O)[C@H](Cc4ccccc4)N3C2=O)C=C2c3cccc4[nH]cc(c34)C[C@H]21 [12'-hydroxy-2'-methyl-5'alpha-(phenylmethyl)ergotaman-3',6',18-trione]
[1]
  Ki: 0.009 µM

## CCNC(C)Cc1cccc(C(F)(F)F)c1 (configuration not stated) [NSC_3337]
[2]
  Ki: 5.1 µM and 5.71 µM
